The numbers were not newly measured in US8404838B2, “Inhibitors of tyrosine kinase receptor dimerization” (Washington University, priority 2008, dated 2013), which cites them from elsewhere.

In series [1] the target is T1, ΔC-EGFR-NLuc and ΔC-EGFR-CLuc (Homo sapiens, UniProt P00533).
T1 construct: luciferase fragment complementation assay designed for monitoring the dimerization of the extracellular domain of the EGF receptor; expressed in transfected cells; the other entry of the earlier key: firefly luciferase (P08659, Luciferin 4-monooxygenase)
To be noted: from Yang et al. 2009; cited from earlier work.

For series [2], the target named is T2, EGF receptor (Homo sapiens, UniProt P00533).
T2 construct: CHO cells stably expressing wild type EGF receptor; expressed in transfected cells
To be noted: from Gan et al. 2007; cited from earlier work.

As to `COc1cc2ncnc(Nc3cccc(Cl)c3)c2cc1OC` [AG1478], in series [1], the “EGF receptor dimer formation by luciferase fragment complementation” value was “increased dimer-formation”. Moreover, the “EGF receptor dimer formation by chemical crosslinking” value in series [2] is “increased dimer-formation”.
